Reference: PubChem BioAssay AID493091 (Sanford-Burnham Center for Chemical Genomics, 2011)
The list shows a part of the results, in another mix than the full data. Some salts or complexes appear as unconnected parts, following the source record. The source made the active and inactive calls.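 The calls were made as follows: active = inhibition above about 50% at 20 µM (limit read from the data); inactive = the rest.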

Chains of the proteins cited; added tags and fusions are not shown. Residues count along the entry.
UniProt Q9GZU7, 76-261 limits assumed: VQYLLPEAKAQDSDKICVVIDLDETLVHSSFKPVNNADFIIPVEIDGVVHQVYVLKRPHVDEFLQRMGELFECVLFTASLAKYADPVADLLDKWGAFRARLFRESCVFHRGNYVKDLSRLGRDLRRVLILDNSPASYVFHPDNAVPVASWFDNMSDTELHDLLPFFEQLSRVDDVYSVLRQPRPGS

Biological target: Carboxy-terminal domain RNA polymerase II polypeptide A small phosphatase 1 (Homo sapiens) (UniProt Q9GZU7)
Assay: Scp-1 phosphatase inhibitors, primary screen, biochemical, colorimetric, uHTS (AID 493091);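 also: plate controls were DMSO wells with enzyme for no effect and wells lacking enzyme for full effect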
Settings: Recombinant Scp1, phosphopeptide, malachite green phosphate absorbance; at 20 µM; hits give high values

Structure (SMILES)	inhibition
CCN(CC)CCCOC(=O)C(O)(c1ccccc1)C1CCCCC1 (stereo unspecified)	inactive: -17.3%
Cc1c([N+](=O)[O-])cc([N+](=O)[O-])c(Br)c1[N+](=O)[O-]	inactive: -6.75%
O=[N+]([O-])c1cc([N+](=O)[O-])c(OC2CCCCC2O)c([N+](=O)[O-])c1 (stereo unspecified)	inactive: -5.15%
CCCCCOc1ccc(NP(C)(=O)Oc2ccc(Cl)cc2Cl)cc1 (stereo unspecified)	inactive: 5.27%
CP(=O)(Nc1ccccc1)Oc1ccc(F)cc1 (stereo unspecified)	inactive: -5.22%
COc1ccc(OP(C)(=O)Nc2ccc(SC(F)(F)F)cc2)cc1 (stereo unspecified)	inactive: -12.5%
CCOC(=O)c1ccc(NP(C)(=O)Oc2ccc(F)cc2)cc1 (stereo unspecified)	inactive: -10.7%
O=C(OCCN1CCN(CCOCc2ccccc2)CC1)C(O)(c1ccccc1)c1ccccc1	inactive: -27.1%
O=C(OC1CN2CCC1CC2)c1ccc([N+](=O)[O-])cc1 (stereo unspecified)	inactive: -11.4%
COc1ccc2c(c1O)-c1c(O)c(OC)cc3c1[C@H](C2)[N+](C)(C)CC3.O=[N+]([O-])c1cc([N+](=O)[O-])c([O-])c([N+](=O)[O-])c1[O-]	inactive: 1.23%
CC(C)c1ccc(OP(C)(=O)Nc2ccc(SC(F)(F)F)cc2)cc1 (stereo unspecified)	inactive: -7.76%
CP(=O)(Nc1ccccc1F)Oc1ccccc1 (stereo unspecified)	inactive: 0.4%
CP(=O)(Nc1ccc2c(c1)OCCO2)Oc1ccccc1 (stereo unspecified)	inactive: -3.11%
Cc1ccccc1NP(C)(=O)Nc1ccccc1C	inactive: -5.63%
CP(=O)(Nc1ccc(SC(F)(F)F)cc1)Oc1ccc(F)cc1 (stereo unspecified)	inactive: -3.06%
CCOP(C)(=S)SCC(=O)NC(C)(CC)C(=O)O (stereo unspecified)	inactive: -5.99%
O=[N+]([O-])c1cc([N+](=O)[O-])c(NCC2CCS(=O)(=O)C2)c([N+](=O)[O-])c1 (stereo unspecified)	inactive: -5.09%
Cc1cc(-c2cccc3ccccc23)c(C)cn1.O=[N+]([O-])c1cc([N+](=O)[O-])c(O)c([N+](=O)[O-])c1	inactive: -1.97%
O=[N+]([O-])c1ccc(OP2(=O)COCCO2)cc1 (stereo unspecified)	inactive: -1.75%
Cc1c(C(c2ccc3c(c2)OCO3)c2c(C)n(C)n(-c3ccccc3)c2=O)c(=O)n(-c2ccccc2)n1C.O=[N+]([O-])c1cc([N+](=O)[O-])c(O)c([N+](=O)[O-])c1	inactive: -0.82%
COc1ccc(OP(C)(=O)Nc2cccc(Br)c2)cc1 (stereo unspecified)	inactive: -12.1%
COc1ccc(NP(C)(=O)Oc2ccccc2OC)cc1 (stereo unspecified)	inactive: 0.9%
CN(C)CCOC(=O)C(O)(c1ccccc1)C1CCCCC1 (stereo unspecified)	inactive: 8.88%

Structure (SMILES)	inhibition
Nc1ccc2c(ccc3cccnc32)n1.O=[N+]([O-])c1cc([N+](=O)[O-])c(O)c([N+](=O)[O-])c1	inactive: -6.97%
CP(=O)(OC12CC3CC(CC(C3)C1)C2)OC12CC3CC(CC(C3)C1)C2	inactive: -10.7%
CCOC(=O)c1ccc(NP(C)(=O)Oc2ccc(Cl)cc2)cc1 (stereo unspecified)	inactive: -10.3%
CP(=O)(Nc1ccc(Cl)cc1)Oc1ccc(F)cc1 (stereo unspecified)	inactive: -2.46%
COc1ccccc1OP(C)(=O)Nc1ccccc1Br (stereo unspecified)	inactive: 2.01%
CC(C)(C)c1ccc(OP(C)(=O)O)cc1	inactive: -3.44%
CN(C)C(=O)c1c([N+](=O)[O-])cc([N+](=O)[O-])cc1[N+](=O)[O-]	inactive: -3.26%
CCN(CC)CC(O)COC(=O)C(O)(c1ccccc1)C1CCCCC1 (stereo unspecified)	inactive: -9.5%
COc1ccc(OP(C)(=O)Nc2ccc(Br)cc2)cc1 (stereo unspecified)	inactive: -2.57%
CP(=O)(Oc1ccccc1)N1CCOC1=O (stereo unspecified)	inactive: 0.47%
CCc1ccc(OP(C)(=O)Nc2cccnc2)cc1 (stereo unspecified)	inactive: -2.92%
COc1ccccc1OP(C)(=O)Nc1c(C)n(C)n(-c2ccccc2)c1=O (stereo unspecified)	inactive: -3.29%
O=C(OCCCN1CCCC1)C(O)(c1ccccc1)C1CCCCC1 (stereo unspecified)	inactive: -7.3%
Cc1c(NP(C)(=O)Oc2ccc(C(C)C)cc2)c(=O)n(-c2ccccc2)n1C (stereo unspecified)	inactive: -5.02%
O=[N+]([O-])c1cc([N+](=O)[O-])c(Nc2ccccn2)c([N+](=O)[O-])c1	inactive: -3.64%
CP(=O)(Nc1ccccn1)Oc1ccccc1 (stereo unspecified)	inactive: -3.29%
COc1ccccc1OP(C)(=O)Nc1ccc(C)cc1C (stereo unspecified)	inactive: 27.7%
COc1ccccc1OP(C)(=O)Nc1ccc(Br)cc1 (stereo unspecified)	inactive: -12.3%
CN(C)CCOC(=O)C(O)(c1ccccc1)C1CCCC1 (stereo unspecified)	inactive: -6.35%
COc1ccc(OP(C)(=O)Nc2ccccn2)cc1 (stereo unspecified)	inactive: -2.05%
CP(=O)(Nc1ccc(Cl)cc1Cl)Oc1ccccc1 (stereo unspecified)	inactive: 1.07%
CCCCCCCCCCCCCCCC1C[N+](C)(C)CCOP(C)(=O)O1 (stereo unspecified)	inactive: 9.6%
CP(=O)(OCCOc1ccccc1)OCCOc1ccccc1	inactive: -14.2%
